# Measured values reported in PubChem BioAssay AID504357 (The Scripps Research Institute Molecular Screening Center, 2011).
# Sequences of proteins named here, by UniProt entry; tags and fusion partners are left off.
# UniProt P35372, whole entry, looked up: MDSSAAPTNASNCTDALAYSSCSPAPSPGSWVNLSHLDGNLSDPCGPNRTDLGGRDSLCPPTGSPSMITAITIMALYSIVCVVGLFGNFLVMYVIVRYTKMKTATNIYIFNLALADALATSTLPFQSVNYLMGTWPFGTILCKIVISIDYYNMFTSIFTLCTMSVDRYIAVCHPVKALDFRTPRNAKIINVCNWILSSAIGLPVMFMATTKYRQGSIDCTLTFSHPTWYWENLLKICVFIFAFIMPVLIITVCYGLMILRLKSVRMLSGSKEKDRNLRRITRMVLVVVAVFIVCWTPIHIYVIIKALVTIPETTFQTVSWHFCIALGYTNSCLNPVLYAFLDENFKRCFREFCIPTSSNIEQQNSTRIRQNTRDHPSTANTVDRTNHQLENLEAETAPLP
# UniProt P41143, whole entry, looked up: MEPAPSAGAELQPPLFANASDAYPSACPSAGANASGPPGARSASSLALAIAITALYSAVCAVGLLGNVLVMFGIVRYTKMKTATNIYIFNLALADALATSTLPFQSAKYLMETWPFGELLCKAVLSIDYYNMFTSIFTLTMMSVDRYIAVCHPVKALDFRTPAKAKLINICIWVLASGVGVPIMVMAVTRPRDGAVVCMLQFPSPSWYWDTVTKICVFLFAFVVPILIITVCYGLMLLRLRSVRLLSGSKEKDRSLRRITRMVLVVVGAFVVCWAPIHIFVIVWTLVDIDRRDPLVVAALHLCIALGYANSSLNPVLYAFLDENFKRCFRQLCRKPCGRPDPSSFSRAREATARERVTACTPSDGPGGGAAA
# The entries are a selection whose mix differs from that of the whole data set. Calls of active or inactive are those of the source. Rule as the data show it: active = inhibition above about 22% (passing the limit was not always enough); inactive = the rest.
# Biological target: Mu-type opioid receptor (Homo sapiens) + Delta-type opioid receptor (Homo sapiens) (UniProt P35372+P41143)
# Test: inverse agonists of MOR-DOR heterodimerization, primary screen, cell-based, luminescence (AID 504357);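 also: 0% = cells with DMSO and 100% = wells without cells with DMSO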
# Settings: cell-based MOR-DOR heterodimer luminescence, inverse agonism; at 9.3 µM; active compounds read high
row,Structure (SMILES),inhibition
1,COC(=O)C1=C(C)N=C2SCCC(=O)N2C1/C=C/c1ccccc1 (stereo unspecified),inactive: 9.82%
2,COC(=O)c1ccc(CNC(=O)Cn2cnc3c(OCc4ccccc4)ncnc32)cc1,inactive: 10.3%
3,O=C(Cn1cnc2c(NCc3ccccc3)ncnc21)NCc1nc2ccccc2[nH]1,inactive: 10.7%
4,CC1CCN(C(=O)Cn2c(SCC(=O)Nc3nccs3)nc3ccccc32)CC1,inactive: 1.45%
5,Cc1ccc(C)c(S(=O)(=O)N2CCN(C(=O)Cn3c(C(F)(F)F)nc4ccccc43)CC2)c1,inactive: 7.25%
6,Cc1ccc(-c2csc(NCCn3c(-c4ccncc4)nc4ccccc43)n2)cc1,inactive: 2.54%
7,Cc1ccc(CNC(=O)Cn2cnc3c(NCc4ccccc4)ncnc32)o1,inactive: 23%
8,CCCC1OP(N)(=O)OCC1CC (stereo unspecified),inactive: 3%
9,Cn1c(=O)c2c(ncn2CC(=O)NC[C@H]2O[C@@H](n3cnc4c(N)ncnc43)[C@H](O)[C@@H]2O)n(C)c1=O,inactive: 15.6%
10,Cn1c(=O)n(CCN2CCOCC2)c(=O)c2c1nc1n2CCN1c1ccc(Oc2ccccc2)cc1,inactive: -1.68%
11,COc1ccc(N2CCN(C(=O)Cn3cnc4c3c(=O)n(C)c(=O)n4C)CC2)cc1,inactive: 5.12%
12,COc1ccc(CN(C)C(=O)Cn2cnc3c(OCc4ccccc4)ncnc32)cc1OC,inactive: 14%
13,CC(C)[C@H](NC(=O)N1CCn2c1nc1ccccc12)C(=O)NCc1ccccc1Cl,inactive: -2.86%
14,O=C(Cn1cnc2ccccc21)NCc1ccccc1,inactive: 5.36%
15,CCOc1cccc(N2C(=O)CC(n3cnc4ccccc43)C2=O)c1 (stereo unspecified),inactive: 8.32%
16,Cc1ccc2c(c1)C1CN(C)CCC1N2C(=O)c1ccccc1NS(=O)(=O)c1ccc(F)cc1 (stereo unspecified),inactive: 5.3%
17,O=C(Cn1c(NCCO)nc2ccccc21)NCC(F)(F)F,inactive: 13.4%
18,CC(=O)Nc1ccc([As](=O)(O)O)cc1,inactive: 1.37%
19,Cn1c(=O)c2ncn(CC(=O)Nc3ccc4c5c(cccc35)CC4)c2n(C)c1=O,inactive: 1.85%
20,O=C(O)c1ccccc1[As](=O)(O)O,inactive: 11.8%
21,O=C(Cn1c(COc2ccccc2)nc2ccccc21)Nc1cc(Cl)cc(Cl)c1,inactive: -3.17%
22,Nc1ncnc2c1ncn2C1OC(CO)C(O)C1N (stereo unspecified),inactive: 9.11%
23,CC(C)CSc1nc2ccccc2n1CC(N)=O,inactive: 6.33%

row,Structure (SMILES),inhibition
1,C[C@H](O)[C@@H]1C(=O)N2CCc3ccc(N4CCOCC4)cc3[C@@H]2C[C@@H]1N(C)C(=O)Nc1ccccc1,inactive: 14.2%
2,CN1C(=O)Cn2c1nc1ccccc12,inactive: 10.3%
3,CC(C)C[C@H](NC(=O)N1CCn2c1nc1ccccc12)C(=O)N1CCCCC1,inactive: 7.6%
4,O=C(Cn1cnc2ccccc21)Nc1cccc([N+](=O)[O-])c1,inactive: 13.4%
5,Nc1cccc2ccc([As](=O)(O)O)cc12,inactive: -22.7%
6,Cn1c(=O)c2c(nc(NCc3ccccc3)n2CC(=O)NCc2ccccc2)n(C)c1=O,inactive: 5.23%
7,O=C(CCCCCNC(=O)N1CCn2c1nc1ccccc12)N[C@@H](Cc1ccccc1)C(=O)O,inactive: 10.6%
8,Cn1c(=O)n(CC(=O)NCc2cccnc2)c2ccccc21,inactive: 14.1%
9,O=C(Cn1c(SCC(=O)N2CCc3ccccc3C2)nc2ccccc21)NC1CCCC1,inactive: 13.9%
10,CC1CCCCN1C(=O)CSc1nc2ccccc2n1CC(=O)N1CCc2ccccc21 (stereo unspecified),inactive: 7.37%
11,CCN(CC)CCNC(=O)Cn1c(-c2ccccn2)nc2ccccc21,inactive: -2.66%
12,CCC(=O)N(c1ccccc1)C1CCCCC1,inactive: 19.1%
13,CCN(N=Nc1nonc1N)c1nonc1N,inactive: 15.1%
14,CC(C)(C)NC(=O)Cn1c(SCC(=O)NC2CCCC2)nc2ccccc21,inactive: 2.03%
15,CCN(CC)CCn1c(=N)n(CCOc2ccccc2)c2ccccc21,inactive: 10.3%
16,CCC(=O)Nc1nnc(/C=C/c2ccc(OC)cc2)s1,inactive: 4.69%
17,Nc1nonc1-c1nc2ccccc2n1CC(=O)Nc1ccccc1,inactive: 11.8%
18,CC(=O)c1ccc(NC(=O)C2CC(=O)Nc3nc4ccccc4n32)cc1 (stereo unspecified),inactive: 19.6%
19,CC1CN(Cc2nc3c(c(=O)[nH]c(=O)n3C)n2CCN2CCOCC2)CC(C)O1 (stereo unspecified),inactive: 7.6%
20,O=C(Nc1ccc2c(c1)nc1n2CCN(Cc2ccccc2)C1)c1cccs1,inactive: 4.52%
21,O=C(CCC(=O)Nc1ccccc1)N/N=C/C=C/c1ccccc1,inactive: -3.02%
22,COc1ccc(N2C(=O)CC(n3c(CCCCO)nc4ccccc43)C2=O)cc1 (stereo unspecified),inactive: 3.19%
23,O=C(Cn1c(-c2cncs2)nc2ccccc21)NCc1ccccc1,inactive: 15.1%

row,Structure (SMILES),inhibition
1,Cn1c(=O)c2c(ncn2CC(N)=O)n(C)c1=O,inactive: 5.05%
2,Cc1ccccc1NC(=O)Cn1cnc2c1c(=O)n(C)c(=O)n2C,inactive: 4.12%
3,COc1ccc(CC(=O)N2CCC(Nc3nc4ccccc4n3Cc3ccc(F)cc3)CC2)cc1,inactive: 9.49%
4,O=C(Cn1c(COc2ccccc2)nc2ccccc21)Nc1cc(Cl)ccc1Cl,inactive: -11.5%
5,COc1ccc(CCNC(=O)Cn2c(-c3nonc3N)nc3ccccc32)cc1OC,inactive: 8.22%
6,O=C(NCCn1c(C(F)(F)F)nc2ccccc21)[C@H]1CCCN1c1nc(CN2CCCCC2)cs1,inactive: -1.29%
7,CC(C)NC(=O)Cn1c(SCC(=O)N2CCCCCC2)nc2ccccc21,inactive: 7.76%
8,CN(CC(=O)Nc1cccc(F)c1)C(=O)Cn1cnc2c1c(=O)n(C)c(=O)n2C,inactive: 9.84%
9,CCCCOC(=O)Cn1c(=N)n(CCN2CCOCC2)c2ccccc21,inactive: 10.6%
10,CN1CCCC(OC(=O)C(c2ccccc2)c2ccccc2)C1 (stereo unspecified),inactive: 5.47%
11,Clc1ccc(Cl)c(NC2=NCC(CBr)S2)c1 (stereo unspecified),inactive: 2.74%
12,O=C(Cn1c(NCCO)nc2ccccc21)NCCc1ccccc1,inactive: -4.36%
13,Cc1ccc(/C=N/NC(=O)Cn2cnc3ccccc32)cc1,inactive: 15.7%
14,CCOc1cc(N2CCOCC2)c(OCC)cc1NC(=O)Cn1cnc2c(=O)n(C)c(=O)n(C)c21,inactive: 10.3%
15,COc1ccc(CNC(=O)CCCCCNC(=O)N2CCn3c2nc2ccccc23)cc1,inactive: 14%
16,COc1ccc(C(=O)CSc2nc3ccccc3n2CC(=O)NC(C)(C)C)cc1,inactive: 4.76%
17,O=C1Cn2c(nc3ccccc32)N1c1cccc(C(F)(F)F)c1,inactive: -12.1%
18,CN1CC[C@]2(CCN3CCc4c(oc5ccccc45)[C@@H]3C2)N(C)C1=O,inactive: 8.5%
19,COc1ccccc1OP(=O)(Nc1ccc(C)cn1)Oc1ccccc1OC,inactive: 17.2%
20,CN1CCN(CCN2CCn3c2nc2ccccc23)CC1,inactive: 12.9%
21,CCC(C)(C)n1nnnc1CN1CCC(n2c(C)nc3cc(C(F)(F)F)ccc32)CC1,inactive: -21.5%
22,Cc1nc2cc(F)ccc2n1C1CCN(Cc2nnnn2CCc2ccccc2)CC1,inactive: 15.3%
23,Cc1ccc(N/C(=N/P(=O)(N2CCOCC2)N2CCOCC2)N2CCOCC2)cc1,inactive: 0.44%

row,Structure (SMILES),inhibition
1,O=C(Cn1cnc2c(NCc3ccccc3)ncnc21)NCc1ccc2c(c1)OCO2,inactive: 13.8%
2,CC(O)c1nc2ccccc2n1CC(=O)N1CCN(c2ccccc2)CC1 (stereo unspecified),inactive: -5.83%
3,CCOCN(C(=O)Cn1c(C(C)O)nc2ccccc21)c1c(C)cccc1CC (stereo unspecified),inactive: 12.9%
4,CCN(CC)CCn1c(NS(=O)(=O)c2ccc(C)cc2)nc2ccccc21,inactive: -9.71%
5,CC(CNC(=O)Cn1cnc2c(NCc3ccccc3)ncnc21)c1ccccc1 (stereo unspecified),inactive: 9.55%
6,CN(C(=O)Cc1ccc(Cl)c(Cl)c1)[C@H]1CCCC[C@H]1N1CCCC1,inactive: 5.92%
7,O=C(CSc1nc2ccccc2n1CC(=O)N1CCCCC1)N1CCCCC1,inactive: 11.4%
8,Cc1ccc2c(c1)C1CN(C)CCC1N2C(=O)c1ccc(Cl)c(S(=O)(=O)N2CCOCC2)c1 (stereo unspecified),inactive: 12.7%
9,CC1CCCN(C(=O)Cn2c(-c3nonc3N)nc3ccccc32)C1 (stereo unspecified),inactive: 11%
10,O=C(Nc1ccccc1)N1CCC(n2c(=O)[nH]c3ccccc32)CC1,inactive: 3.82%
11,NC(=O)c1cc([N+](=O)[O-])cc([N+](=O)[O-])c1N,inactive: -11.3%
12,C[C@H](O)[C@@H]1C(=O)N2CCc3ccc(-c4ccccc4)cc3[C@@H]2C[C@@H]1N(C)C(=O)NC1CCCCC1,inactive: 10.2%
13,CSc1nc(N)nc2c1ncn2CC(=O)NCc1ccc2[nH]ccc2c1,inactive: 19.1%
14,CN(CC(=O)Nc1ccc(F)c(F)c1F)C(=O)Cn1cnc2c1c(=O)n(C)c(=O)n2C,inactive: -9.08%
15,CN(C)C(=O)Cn1c(SCC(=O)Nc2ccc3c(c2)OCO3)nc2ccccc21,inactive: 8.85%
16,CCC(C(=O)NC1CCCCC1)n1c(SCc2ccc(F)cc2)nc2ccncc21 (stereo unspecified),inactive: -4.12%
17,Cc1ccc(-c2csc(N3CCN(c4ccc5nc(-c6ccncc6)n(CCN6CCCCC6)c5c4)CC3)n2)cc1,inactive: -1.49%
18,Nc1nonc1-c1nc2ccccc2n1CC(=O)N/N=C\c1ccc(-c2ccc(Cl)cc2)o1,inactive: -8.2%
19,Cc1n[nH]c(C)c1CCC(=O)N/N=C/C=C/c1ccccc1,inactive: 7.3%
20,COc1ccc(C)cc1S(=O)(=O)N1c2ccc(C)cc2C2CN(C)CCC21 (stereo unspecified),inactive: 3.95%
21,O=C1Cn2c(nc3ccccc32)N1c1ccccc1F,inactive: 3.98%
22,N=c1n(CCCOc2ccc(F)cc2)c2ccccc2n1CC(N)=O,inactive: 17.1%
